Test results published in patent US20220389118A1 (Chugai, published 2022).
Where a chain is given by its changes, count along the chain named. In names and notes the source's numbering stands.

By UniProt entry, the sequences of proteins in these tests, tags left out. Residues count along the entry.
UniProt P12314, 16-292: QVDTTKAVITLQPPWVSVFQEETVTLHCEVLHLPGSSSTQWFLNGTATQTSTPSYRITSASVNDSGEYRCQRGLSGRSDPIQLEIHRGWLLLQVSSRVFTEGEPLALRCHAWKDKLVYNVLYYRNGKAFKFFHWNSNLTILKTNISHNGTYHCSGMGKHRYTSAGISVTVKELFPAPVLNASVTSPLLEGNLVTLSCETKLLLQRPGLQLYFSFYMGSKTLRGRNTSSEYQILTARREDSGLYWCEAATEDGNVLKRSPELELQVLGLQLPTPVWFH

B1: IL6R-BP542/IL6R-L (antibody, human IgG1, kappa)
heavy: QVQLQESGPGLVKPSETLSLTCAVSGHSISHDHAWSWVRQPPGEGLEWIGFISYSGITNYNPSLQGRVTISRDNSKNTLYLQMNSLRAEDTAVYYCARSLARTTAMDYWGEGTLVTVSSASTKGPSVFPLAPSSKSTSGGTAALGCLVKDYFPEPVTVSWNSGALTSGVHTFPAVLQSSGLYSLSSVVTVPSSSLGTQTYICNVNHKPSNTKVDKKVEPKSCDKTHTCPPCPAPDLLGDDSVFLFPPKPKDTLMISRTPEVTCVVVDVSDEDGEVKFNWYVDGVEVHNAKTKPREEQFNSTYRVVSVLTVLHQDWLNGKEYKCKVSNKALPRPIEKTISKAKGQPREPQVYTLPPSRDELTKNQVSLTCLVKGFYPSDIAVEWESNGQPENNYKTTPPVLDSDGSFFLYSKLTVDKSRWQQGNVFSCSVMHEALHNHYTQESLSLSP
light: not shown
notes: Y296F introduced into IL6R-BP230 (takes the place of Y296D); copies: 2 + 2
B2: IL6R-BP545/IL6R-L (antibody, human IgG1, kappa)
heavy: B1 heavy with F298D, D358E
light: not shown
notes: D356E introduced into IL6R-BP230; copies: 2 + 2

Target: T1, human FcγRIa extracellular domain with C-terminal His tag (human, UniProt P12314 16-292)
T1 construct: not shown: His tag at the C terminus
Experiment: SPR (Biacore), antibody captured, FcγR analyte

| Binder | Kd |
| --- | --- |
| B1 | 13 nM |
| B2 | 9.9 nM |
